{
  "source": "patent US10202399B2",
  "about": "“Dihydroxy aromatic heterocyclic compound” (Takeda Pharmaceutical Company Limited, priority 2011, dated 2019)",
  "tested_on": "MK-801 (dizocilpine)-induced impaired spontaneous alternation behavior in mice",
  "details": "male ddY mice, 0.03-0.1 mg/kg oral administration, MK-801 0.15 mg/kg i.p., Y-maze 8 min",
  "data": [
    {"smiles": "O=c1[nH]nc(CCc2cc(F)cc(F)c2)cc1O", "note": "[Example 24, 6-[2-(3,5-difluorophenyl)ethyl]-4-hydroxypyridazin-3(2H)-one]", "values": [
      {"measurement": "spontaneous alternation rate relative to the Control group", "value": "significantly increased"}
    ]}
  ]
}
